{
  "source": "PubChem BioAssay AID588519",
  "about": "(ICCB-Longwood Screening Facility, Harvard Medical School, 2011)",
  "note": "Only a part is listed here, and it is no random draw. Some of these compounds have results that are not shown, active ones among them. Active and inactive are the calls of the source. No stated cut-off is given here; in the data, active means % elongation below about 90%; inactive means the rest, inconclusive results apart.",
  "data": [
    {"biological_target": "Genome polyprotein (Poliovirus type 1 (strain Mahoney)) (UniProt P03300)", "experiment": "poliovirus RdRp elongation inhibitors, primary screen, biochemical, fluorescence polarization, total intensity (AID 588519)", "conditions": "poliovirus polymerase elongation, stronger effect = lower value, compound at 16.7 µg/mL", "values": [
      {"molecule": "CCCCOc1ccccc1C(=O)NCC1(N(C)C)CCCCC1", "% elongation": "inactive: 102%"},
      {"molecule": "CN(C)c1ccc(C(=O)NCC2(N(C)C)CCCCC2)cc1", "% elongation": "inactive: 101%"},
      {"molecule": "CN(C)C1(CNC(=O)c2ccccc2[N+](=O)[O-])CCCCC1", "% elongation": "inactive: 110%"},
      {"molecule": "CCOc1cccc(C(=O)NCC2(N(C)C)CCCCC2)c1", "% elongation": "inactive: 107%"},
      {"molecule": "COc1ccc(OC)c(C=C(C#N)C#N)c1", "% elongation": "inactive: 97%"},
      {"molecule": "O=C(NCC1(N2CCOCC2)CCCCC1)c1cnc(Cl)c(Cl)c1", "% elongation": "inactive: 102%"},
      {"molecule": "CN(C)C1(CNC(=O)c2ccccc2F)CCCCC1", "% elongation": "inactive: 110%"},
      {"molecule": "CN(C)C1(CNC(=O)c2cccc(Cl)c2)CCCCC1", "% elongation": "inactive: 105%"},
      {"molecule": "CC(C)COc1ccc(C(=O)NCC2(N(C)C)CCCCC2)cc1", "% elongation": "inactive: 104%"},
      {"molecule": "O=C(OC1CN2CCC1CC2)C(CO)(c1ccccc1)c1ccccc1", "note": "(centres undefined)", "% elongation": "inactive: 108%"},
      {"molecule": "COc1cccc(C(=O)NCC2(N3CCOCC3)CCCCC2)c1", "% elongation": "inactive: 107%"},
      {"molecule": "CC(C)Oc1ccc(C(=O)NCC2(N(C)C)CCCCC2)cc1", "% elongation": "inactive: 105%"},
      {"molecule": "O=C(NCC1(N2CCCCC2)CCCCC1)c1ccc2c(c1)OCCO2", "% elongation": "inactive: 98%"},
      {"molecule": "COc1cc(C(=O)NCC2(N(C)C)CCCCC2)cc(OC)c1OC", "% elongation": "inactive: 112%"},
      {"molecule": "Cc1cccc(C(=O)NCC2(N(C)C)CCCCC2)c1", "% elongation": "inactive: 107%"},
      {"molecule": "CN1C2CCC1CC(OC(=O)C(O)(c1ccccc1)c1ccccc1)C2", "note": "(centres undefined)", "% elongation": "inactive: 99%"},
      {"molecule": "CN(C)C1(CNC(=O)c2ccncc2)CCCCC1", "% elongation": "inactive: 104%"},
      {"molecule": "COc1ccc(C(=O)NCC2(N(C)C)CCCCC2)cc1Cl", "% elongation": "inactive: 103%"},
      {"molecule": "N#CC(C#N)=Cc1ccccc1", "% elongation": "active: 80%"}
    ]}
  ]
}
